Results reported in patent publication US8815007B2, “Alkoxylated polyamines and polyetheramine polyol compositions for foam control” (priority 2007, dated 2014).

Test: pH
Format: physicochemical
Conditions: Table 3

pH: 10.9
Substance: diethylenetriamine/2 mol 1-epoxyoctane adduct [Example 2]
